According to US20080200433A1, “Molecular Chaperone Function Regulator” (priority 2004, published 2008):

How the values were obtained:
HSP70 = test: Time-dependent HSP70 induction in A-431 cells (Western blot); type: cell-based, human; conditions: 10 μM, vs DMSO control (FIG. 1)
Description: DMSO (0.1%) was added to the control. After the addition, the cells were collected 6, 9, 12 and 24 hr later and cell extracts were prepared. Expression of HSP70 protein in the cell extracts was examined by Western blot using an HSP70 specific antibody. T/C (%) was determined using the amount of chemical luminescence on a PVDF film due to an HRP-labeled secondary antibody as the HSP70 expression amount and HSP70 expression amount of the cells in the control well as 100.

[1] = test system: client proteins EGFR, HER2, ERα, AR, AKT and CDK4 of HSP90 chaperone; test: Suppressive action on HSP90 client protein expression in MCF-7 cells (Western blot); type: cell-based, human; conditions: 10 μM, 24 hr, vs DMSO control (FIG. 3)
Description: After the addition of the compound, the cells were collected and divided in two 24 hr later. Cell extracts were prepared from half the cells, and cytoplasmic fraction and nuclear fraction were prepared from the remaining half. […] Expression of client in each tumor cell extract and nuclear fraction was examined by Western blot using an antibody specific to each client.

In the case of `COc1cc2ncnc(Nc3ccc(F)c(Cl)c3)c2cc1OCCCN1CCOCC1` [gefinitib, 4-(3′-Chloro-4′-fluoroanilino)-7-methoxy-6-(3-morpholinopropoxy)quinazoline, reference compound], the “expression of HSP70” value (HSP70; 6 hr to 12 hr after treatment) is reported as “did not show a clear increase”, the “expression of HSP70” value (HSP70; 24 hr after treatment) is reported as “decreased” and the “expression of HSP90 client proteins” value [1] is reported as “a clear decrease of client was not observed”.
